AlphaSeq binding of Ab-95 light chain variants to a spike HR2 peptide

From the AlphaSeq antibody data of Engelhart et al. 2022 (doi:10.1038/s41597-022-01779-4), copy in the FLAb collection.

Antigen: PDVDLGDISGINAS, a 14-residue peptide of the SARS-CoV-2 spike HR2 region.

Ab-95 is the parent antibody, in scFv form: VH, then three GGGGS repeats, then VL. The heavy chain is unchanged in all variants.
VH: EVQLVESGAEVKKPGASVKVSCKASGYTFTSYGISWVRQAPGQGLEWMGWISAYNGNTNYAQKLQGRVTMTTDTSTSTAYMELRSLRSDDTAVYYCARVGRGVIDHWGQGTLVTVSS
VL: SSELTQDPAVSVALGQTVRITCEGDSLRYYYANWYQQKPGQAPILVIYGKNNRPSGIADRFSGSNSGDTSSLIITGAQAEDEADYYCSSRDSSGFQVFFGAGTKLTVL

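AAYL52 was designed without a model: most single CDR substitutions and a random sample of double and triple ones. In AlphaSeq, yeast of one mating type display the scFv and yeast of the other type display the target. After mating in shaken culture at 30 °C for 16 h, diploids were selected and their barcode pairs sequenced. Read counts were normalised to the haploid input and turned into Kd by a linear fit to BCL2-family pairs of known affinity, for each replicate. There are three technical replicates.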

Sequences are complete VL domains. The read-out is the apparent dissociation constant on a log10 scale (nM): the lower, the stronger. A mean of the replicates is given; it leaves out those without a signal. A pair that was not seen in that replicate is written "nd"; this usually means weak binding, but a binder can also be missed.

| VL | log10 Kd (nM) by replicate | mean, log10 nM | empty controls |
|---|---|---|---|
| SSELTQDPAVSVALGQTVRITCEGDSLRYYYANWYQQKPGQAPILVIYGKNNRPSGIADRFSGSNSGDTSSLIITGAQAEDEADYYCCSRDKSGFQGFFGAGTKLTVL | nd nd nd | nd | 3/9 (4.30) |
| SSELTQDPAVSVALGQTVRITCEGDSLRYYYAVWYQQKPGQAPILVIYGKYNRPSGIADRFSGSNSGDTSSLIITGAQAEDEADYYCSSRDSSGFQVIFGAGTKLTVL | nd nd nd | nd | 0/9 |
| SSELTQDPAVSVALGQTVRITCEGDSLRYYYANWYQQKPGQAPILVIYGKNNNPSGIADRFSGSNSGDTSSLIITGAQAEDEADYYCSSRDSSGSQVFFGAGTKLTVL | 3.12 3.41 3.41 | 3.31 | 0/9 |
| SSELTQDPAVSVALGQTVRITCEGDSLRYYYANWYQQKPGQAPILVIYGKVNRPSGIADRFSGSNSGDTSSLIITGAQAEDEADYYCSSRDSSGFQVGFGAGTKLTVL | nd nd nd | nd | 2/9 (4.23) |
| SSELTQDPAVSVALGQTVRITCEGDSLRYYYANWYQQKPGQAPILVIYGTNNRPSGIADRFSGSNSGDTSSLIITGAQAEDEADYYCSSRDSSDFQEFFGAGTKLTVL | nd nd nd | nd | 0/9 |
| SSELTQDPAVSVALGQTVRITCEGDSLRYYYANWYQQKPGQAPILVIYGKNNRPSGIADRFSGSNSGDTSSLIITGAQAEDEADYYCSSRDSSSFQVFFGAGTKLTVL | 3.91 3.04 4.16 | 3.70 | 3/9 (3.74) |
| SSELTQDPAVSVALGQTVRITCPGDSLRYYYANWYQQKPGQAPILVIYGKNNRTSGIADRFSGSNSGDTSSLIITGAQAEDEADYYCSSRDSSGSQVFFGAGTKLTVL | 4.14 4.15 4.13 | 4.14 | 4/9 (3.72) |
| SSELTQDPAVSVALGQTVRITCEGDSLRYYYANWYQQKPGQAPILVIYGKNNRPSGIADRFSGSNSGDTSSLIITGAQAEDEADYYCSSLMSSGFQCFFGAGTKLTVL | nd nd nd | nd | 2/9 (4.36) |
| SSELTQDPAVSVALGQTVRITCEWDSLRYYYANWYQQKPGQAPILVIYGKNNRRSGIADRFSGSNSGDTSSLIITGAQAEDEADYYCSSRDSSGFQVVFGAGTKLTVL | nd 3.78 nd | 3.78 | 1/9 (2.97) |
| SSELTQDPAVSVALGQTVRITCEGDELRYYYANWYQQKPGQAPILVIYGKNNRPSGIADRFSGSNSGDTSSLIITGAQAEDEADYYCSSRDSSGFAVNFGAGTKLTVL | nd nd nd | nd | 0/9 |
| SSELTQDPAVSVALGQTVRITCQGDSLRYYYANWYQQKPGQAPILVIYGKNNRISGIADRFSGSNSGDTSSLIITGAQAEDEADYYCSSHDSSGFQVFFGAGTKLTVL | 4.50 nd nd | 4.50 | 3/9 (3.90) |
| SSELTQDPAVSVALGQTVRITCEGMSLRYYYANWYQQKPGQAPILVIYGKNNNPSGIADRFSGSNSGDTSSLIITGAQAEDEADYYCSSRDSNGFQVFFGAGTKLTVL | nd nd nd | nd | 1/9 (2.82) |
| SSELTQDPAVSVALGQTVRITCEGDSCRYYYANWYQQKPGQAPILVIYGKNNRPSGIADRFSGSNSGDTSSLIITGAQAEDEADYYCSSPDSSGFQVEFGAGTKLTVL | nd nd nd | nd | 2/9 (4.13) |
| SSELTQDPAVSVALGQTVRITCEGDSLRYYYANWYQQKPGQAPILVIYGKNNRPSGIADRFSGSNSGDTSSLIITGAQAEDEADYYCSQRKSSNFQVFFGAGTKLTVL | 3.50 3.63 3.84 | 3.65 | 3/9 (3.91) |
| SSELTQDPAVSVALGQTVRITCEGPSHRYPYANWYQQKPGQAPILVIYGKNNRPSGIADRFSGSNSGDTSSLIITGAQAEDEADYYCSSRDSSGFQVFFGAGTKLTVL | 2.69 2.40 2.09 | 2.39 | 3/9 (4.23) |

Excerpt, the final 2 entries:

{"VL": "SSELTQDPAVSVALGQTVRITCEGDSLRYYYANWYQQKPGQAPILVIYGKNNRPSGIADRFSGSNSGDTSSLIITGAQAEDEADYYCSQRKSSNFQVFFGAGTKLTVL", "log10 Kd (nM) by replicate": "3.50 3.63 3.84", "mean, log10 nM": "3.65", "empty controls": "3/9 (3.91)"}
{"VL": "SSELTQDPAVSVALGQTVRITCEGPSHRYPYANWYQQKPGQAPILVIYGKNNRPSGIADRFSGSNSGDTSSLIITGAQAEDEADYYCSSRDSSGFQVFFGAGTKLTVL", "log10 Kd (nM) by replicate": "2.69 2.40 2.09", "mean, log10 nM": "2.39", "empty controls": "3/9 (4.23)"}

As a blank, each scFv also met three strains without target: over library AAYL52, 28% of these pairings were detected, typically at 3.91 and seldom below 2.90. The control count says in how many pairings with the empty strains this scFv gave a signal, with their mean in brackets. Parent in this assay: reference entry 2.31, copy in this library 2.25.